Laboratory results reported in ChEMBL document CHEMBL4371003, “Discovery of Novel Dual Mechanism of Action Src Signaling and Tubulin Polymerization Inhibitors (KX2-391 and KX2-361)” (J Med Chem, 2018).

Legend:
Daoy = test: Antiproliferative activity against human DaOY cells; assay type: functional
U-87 MG = test: Antiproliferative activity against human U87 cells; assay type: functional, U-87MG ATCC

GI50 (U-87 MG): 1590 nM
Structure (SMILES): Cc1nc(Nc2ncc(C(=O)Nc3c(C)cccc3Cl)s2)cc(N2CCN(CCO)CC2)n1.O [DASATINIB]
GI50 (Daoy): 2930 nM
